Assay results published in PubChem BioAssay AID743398 (Broad Institute, 2014).
The list shows a part of the results, in another mix than the full data. Calls of active or inactive are those of the source. No stated cut-off is given here; in the data, active means activation above about 30% (passing the limit was not always enough); inconclusive means no clear call, values can overlap the other calls.

Test: Wnt/beta-catenin pathway activators, primary screen, cell-based, plate reader, single point (AID 743398);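 further: 0% = neutral control wells and 100% = positive control wells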
Details: Wnt/beta-catenin reporter cell assay, activator, at 9.35 µM, hits give high values
For O=C(NCC1(N2CCCCC2)CCCCC1)c1cccc(C(F)(F)F)c1, the activation was inactive: -0.267%. For COc1cc(C(=O)NCC2(N3CCCCC3)CCCCC2)ccc1OC(F)F, the activation was inactive: -1.92%. With O=C(NCC1(N2CCOCC2)CCCCC1)c1cc(=O)[nH]c2ccccc12 the activation was inactive: -2.83%. For CN1CCN(CCOC(=O)C(O)(c2ccccc2)c2ccccc2)CC1, the activation was inactive: -0.877%. With COc1ccc(NC2CCN(C(=O)OC(C)(C)C)CC2)cc1 the activation was inactive: -1.09%. For CC(C)c1ccc(C(=O)NCC2(N3CCOCC3)CCCCC2)cc1, the activation was inactive: 0%. With CCCCn1nnnc1C(c1cccc2ccccc12)N1CCC(n2c(=O)[nH]c3ccccc32)CC1 (stereo unspecified) the activation was inactive: -1.59%. With CC(C)(C)n1nnnc1C(c1ccccc1OC(F)(F)F)N1CCC(n2c(=O)[nH]c3ccccc32)CC1 (stereo unspecified) the activation was inactive: -2.8%. For O=C(NCC1(N2CCCCC2)CCCCC1)c1ccc(OC(F)F)cc1, the activation was inactive: 4.91%. With CCN1CCC(Nc2ccc(Cl)cc2)CC1 the activation was inactive: -0.374%. In the case of O=c1[nH]c2ccccc2n1C1CCN(C(c2ccccc2OC(F)(F)F)c2nnnn2C2CCCC2)CC1 (stereo unspecified), the activation is reported as inactive: -2.64%. For O=C(NCC1(N2CCCCC2)CCCCC1)c1cccc([N+](=O)[O-])c1, the activation was inactive: -0.364%. For CSc1ccc(C(=O)NCC2(N3CCOCC3)CCCCC2)cc1, the activation was inactive: 1.69%. In the case of CN1CCC(Nc2cccc(F)c2)CC1, the activation is reported as inactive: 0.528%. For O=C(NCC1(N2CCCCC2)CCCCC1)c1cncc(Br)c1, the activation was inactive: -1.06%. With COc1ccc(C(c2nnnn2C2CCCC2)N2CCC(n3c(=O)[nH]c4ccccc43)CC2)cc1 (stereo unspecified) the activation was inactive: -1.14%. For Cc1ccc(C(=O)NCC2(N(C)C)CCCCC2)o1, the activation was inactive: -1.85%. In the case of CCCOc1ccc(C(=O)NCC2(N(C)C)CCCCC2)cc1OC, the activation is reported as inactive: 0.927%. With CC(C)c1ccc(NC2CCN(C(=O)OC(C)(C)C)CC2)cc1 the activation was inactive: 9.7%. For COc1ccc(CN(CCCl)CCCl)cc1Cl, the activation was inactive: -0.789%. In the case of CN(C)c1cccc(C(=O)NCC2(N3CCCCC3)CCCCC2)c1, the activation is reported as inactive: 0.588%. In the case of COc1cc(OC)c(C(=O)NCC2(N(C)C)CCCCC2)cc1OC, the activation is reported as inactive: -0.453%. With CCC(c1nnnn1C(C)(C)C)N1CCC(n2c(=O)[nH]c3ccccc32)CC1 (stereo unspecified) the activation was inactive: -1.47%. In the case of O=C(NCC1(N2CCOCC2)CCCCC1)c1cc(F)c(F)cc1Cl, the activation is reported as inactive: -4.02%. For CCCCn1nnnc1C(c1ccnc2ccccc12)N1CCC(n2c(=O)[nH]c3ccccc32)CC1 (stereo unspecified), the activation was inactive: -1.83%. With O=C(NCC1(N2CCCCC2)CCCCC1)c1ccc(Cl)nc1 the activation was inactive: -1.2%.
